The numbers were not newly measured in PubChem BioAssay AID977610, which cites them from elsewhere.

Holding throughout (experiment): PubChem AID 977610
In data set [1] the target is OROTIDINE 5-PHOSPHATE DECARBOXYLASE
To be noted: PDB protein-ligand complexes, literature Ki; protein: OROTIDINE 5-PHOSPHATE DECARBOXYLASE; PDB entry 1JJK.

Data set [2] concerns the target orotidine 5'-monophosphate decarboxylase. To be noted: PDB protein-ligand complexes, literature Ki, protein: orotidine 5'-monophosphate decarboxylase.
In data set [3] the target is phosphonoacetaldehyde hydrolase. To be noted: PDB protein-ligand complexes, literature Ki; protein: phosphonoacetaldehyde hydrolase; PDB entry 1RQL.
A further data set deals with pol polyprotein. Particulars: PDB protein-ligand complexes, literature Ki; protein: pol polyprotein; PDB entry 2AOE.
Data set [4] addresses triosephosphate isomerase. Particulars: PDB protein-ligand complexes, literature Ki; protein: triosephosphate isomerase; PDB entry 6TIM.
For another data set, the target named is NarGHI. Particulars: PDB protein-ligand complexes, literature Ki; protein: NarGHI; PDB entry 1Y4Z.
In data set [5] the target is 5(3)-deoxyribonucleotidase. Particulars: PDB protein-ligand complexes, literature Ki; protein: 5(3)-deoxyribonucleotidase; PDB entry 1Q91.
The next data set addresses ctp synthase. Particulars: PDB protein-ligand complexes, literature Ki; protein: ctp synthase; PDB entry 2AD5.
The target in another data set is carboxypeptidase a. To be noted: PDB protein-ligand complexes, literature Ki; protein: carboxypeptidase a; PDB entry 1CBX.
In data set [6] the target is serine carboxypeptidase ii. Particulars: PDB protein-ligand complexes, literature Ki; protein: serine carboxypeptidase ii; PDB entry 1WHT.
The target in data set [7] is Fructose-bisphosphate aldolase A. Particulars: PDB protein-ligand complexes, literature Ki; protein: Fructose-bisphosphate aldolase A; PDB entry 2OT1.
Data set [8] has as its target diaminopimelate decarboxylase. Particulars: PDB protein-ligand complexes, literature Ki; protein: diaminopimelate decarboxylase; PDB entry 1TUF.
Data set [9] has as its target Beta-galactosidase(S796T mutant). Particulars: PDB protein-ligand complexes, literature Ki; protein: Beta-galactosidase(S796T mutant); PDB entry 3T0B.
The target of data set [10] is Beta-galactosidase. To be noted: PDB protein-ligand complexes, literature Ki; protein: Beta-galactosidase; PDB entry 3I3D.
Data set [11] concerns the target beta-galactosidase. Particulars: PDB protein-ligand complexes, literature Ki; protein: beta-galactosidase; PDB entry 1PX4.
Data set [12] has as its target E. coli (lacZ) beta-galactosidase (H418N). To be noted: PDB protein-ligand complexes, literature Ki; protein: E. coli (lacZ) beta-galactosidase (H418N); PDB entry 3DYO.
The target of data set [13] is E. coli (lacZ) beta-galactosidase (N460S mutant). Particulars: PDB protein-ligand complexes, literature Ki; protein: E. coli (lacZ) beta-galactosidase (N460S mutant); PDB entry 3VD9.
For data set [14], the target named is E. coli (lacZ) beta-galactosidase (N460T mutant). Particulars: PDB protein-ligand complexes, literature Ki; protein: E. coli (lacZ) beta-galactosidase (N460T mutant); PDB entry 3VDC.
Data set [15] has as its target Beta-galactosidase(S796A mutant). Particulars: PDB protein-ligand complexes, literature Ki; protein: Beta-galactosidase(S796A mutant); PDB entry 3T08.
Data set [16] concerns the target E. coli (lacZ) beta-galactosidase (N460D mutant). Particulars: PDB protein-ligand complexes, literature Ki; protein: E. coli (lacZ) beta-galactosidase (N460D mutant); PDB entry 3VD4.
The target in data set [17] is Beta-galactosidase(S796D mutant). Particulars: PDB protein-ligand complexes, literature Ki; protein: Beta-galactosidase(S796D mutant); PDB entry 3T2P.
For data set [18], the target named is aminolevulinic acid dehydratase. Particulars: PDB protein-ligand complexes, literature Ki; protein: aminolevulinic acid dehydratase; PDB entry 1YLV.
The next data set addresses ermc' methyltransferase. Particulars: PDB protein-ligand complexes, literature Ki; protein: ermc' methyltransferase; PDB entry 1QAQ.
Data set [19] deals with histamine n-methyltransferase. Particulars: PDB protein-ligand complexes, literature Ki; protein: histamine n-methyltransferase; PDB entry 2AOU.
The target of data set [20] is protein-tyrosine phosphatase, non-receptor type. Particulars: PDB protein-ligand complexes, literature Ki; protein: protein-tyrosine phosphatase, non-receptor type; PDB entry 1Q1M.
Data set [21] addresses Glutamate receptor, ionotropic kainate 1. To be noted: PDB protein-ligand complexes, literature Ki; protein: Glutamate receptor, ionotropic kainate 1; PDB entry 2PBW.

For `O=c1cc(O)n([C@@H]2O[C@H](COP(=O)(O)O)[C@@H](O)[C@H]2O)c(=O)[nH]1`, the Ki in [1] was 8.8 pM; in [2] (PDB entry 1DQX), 9 pM; in data set [2] (PDB entry 1EIX), 8.8 pM; in [2] (PDB entry 1LOR), 8.8 pM. Take `C=CS(=O)(=O)O`: the Ki in [3] is 1790 µM. In the case of `CCCC[C@H](NC(=O)[C@H](C)NC(=O)[C@H](CCC(=O)O)NC(=O)[C@H](Cc1ccccc1)NC[C@H](CC(C)C)NC(=O)[C@@H](NC(=O)[C@@H](N)CCCN=C(N)N)C(C)C)C(N)=O`, the Ki at pol polyprotein was 0.024 µM. For `O=P(O)(O)OC[C@@H](O)CO`, the Ki in data set [4] is 610 µM. With `Oc1c(Cl)c(Cl)c(Cl)c(Cl)c1Cl`, on NarGHI, the Ki was 0.057 µM. As for `Cc1cn([C@H]2C[C@H]3O[C@](c4ccccc4)(P(=O)(O)O)OC[C@H]3O2)c(=O)[nH]c1=O`, the Ki in data set [5] is 70 µM. Turning to `Nc1ccn([C@@H]2O[C@H](COP(=O)(O)OP(=O)(O)OP(=O)(O)O)[C@@H](O)[C@H]2O)c(=O)n1`, the Ki on ctp synthase is 110 µM.

On to `O=C(O)C[C@@H](Cc1ccccc1)C(=O)O`, for which the Ki at carboxypeptidase a is 0.45 µM; in [6] it was 200 µM.

With `O=C(Nc1ccc(Cl)cc1)c1cc2ccccc2cc1OP(=O)(O)O`, the Ki in data set [7] was 100 µM. For the molecule `O=C(O)CCCCCCCC(=O)O`, the Ki in data set [8] is 89 µM. As to `CC(C)S[C@@H]1O[C@H](CO)[C@H](O)[C@H](O)[C@H]1O`, the Ki in data set [9] is 50 µM; on Beta-galactosidase [10], 10300 µM; on beta-galactosidase [11] it was 590 µM; in [12] it was 5000 µM; in data set [13], 100 µM; in data set [14], 12 µM. Moreover, the results for the Ki in data set [15], in data set [16] and in [17] were 910 µM, 15 µM and 250 µM, respectively.

For `CCCCC(=O)O`, the Ki in data set [18] is 2000 µM. In the case of `Nc1ncnc2c1ncn2[C@@H]1O[C@H](C[C@@H](N)CC[C@H](N)C(=O)O)[C@@H](O)[C@H]1O`, the Ki at ermc' methyltransferase was 18 µM. Consider `CCN(CC)Cc1cc(Nc2ccnc3cc(Cl)ccc23)ccc1O`, for which, in data set [19], the inhibition constant (Ki) was 0.0186 µM. `COC(=O)c1c(O)cccc1OC/C=C/c1ccc(F)c(-c2cc(C(=O)O)no2)c1`: the Ki in data set [20] was 6.9 µM.

Regarding `C/C(=C/C=C/[C@@H](C)C(=O)O)[C@H]1CN[C@H](C(=O)O)[C@H]1CC(=O)O`, the Ki in [21] was 0.00556 µM.

By Ki is commonly meant the equilibrium dissociation constant of an inhibitor or competing ligand from its target.
